# AlphaSeq binding of Ab-91 heavy chain variants to a spike HR2 peptide

Binding partner: SARS-CoV-2 spike HR2 peptide, sequence PDVDLGDISGINAS.

Parent scFv Ab-91: VL joined to VH by the linker GGGGSGGGGSGGGGS. Changes lie in the heavy chain CDRs alone.
VL: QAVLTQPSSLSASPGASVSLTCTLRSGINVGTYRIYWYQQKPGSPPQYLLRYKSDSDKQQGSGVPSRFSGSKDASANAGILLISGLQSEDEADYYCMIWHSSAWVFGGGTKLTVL
VH: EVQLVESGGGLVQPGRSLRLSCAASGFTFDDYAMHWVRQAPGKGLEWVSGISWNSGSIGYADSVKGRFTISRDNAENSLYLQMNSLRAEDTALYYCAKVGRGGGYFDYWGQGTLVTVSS

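Variants in AAYL51 differ from the parent at up to three CDR positions; double and triple changes were sampled at random. In AlphaSeq, yeast of one mating type display the scFv and yeast of the other type display the target. Binding brings cells together so that they mate, and sequencing counts the barcode pairs among the diploids. Read counts were normalised to the haploid input and turned into Kd by a linear fit to BCL2-family pairs of known affinity, for each replicate. There are three technical replicates.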

Changes read parent residue, position, new residue, counted from the first residue of the VH shown. All variants listed here change A61 of the VH, counted from its first residue. The Kd shown is the geometric mean over detected replicates; a lower Kd is a better binder. Where no diploid with the target was found in any replicate, the entry reads "nd": below detection, most likely a poor binder, though not proof of it. In this assay the parent's reference entry averaged 72 nM; its copy inside this library read 7.5 nM.

| changes | Kd | seen in | control signals |
|---|---|---|---|
| A61C/G102M/Y105S | 36 µM | 3 of 3 | 2 of 9 |
| T28E/S55E/A61E | nd | 0 of 3 | 0 of 9 |
| H35K/A61E | 3.0 µM | 1 of 3 | 0 of 9 |
| D31A/A61T/K65G | 40 nM | 3 of 3 | 2 of 9 |
| T28V/A61Q/Y108G | nd | 0 of 3 | 0 of 9 |
| F29G/A61F/G104W | 81 µM | 1 of 3 | 1 of 9 |
| S55Q/A61G/S63N | 2.4 µM | 1 of 3 | 2 of 9 |
| A61G/G100Y/R101H | 60 µM | 2 of 3 | 2 of 9 |
| D31N/S55F/A61N | 87 µM | 2 of 3 | 5 of 9 |
| F27A/A33F/A61N | 8.1 µM | 3 of 3 | 4 of 9 |
| G26F/A61P/G103S | 60 µM | 1 of 3 | 0 of 9 |
| A61W/G104M/F106E | 9.2 µM | 1 of 3 | 5 of 9 |
| G50D/A61T | 44 µM | 1 of 3 | 2 of 9 |
| N54I/A61C/R101M | nd | 0 of 3 | 0 of 9 |
| D30N/A61Q/S63T | 18 nM | 3 of 3 | 0 of 9 |
| M34R/I58K/A61F | nd | 0 of 3 | 1 of 9 |
| A61G/V64I/G102F | nd | 0 of 3 | 0 of 9 |
| T28K/A61I/V99I | 8.2 nM | 3 of 3 | 0 of 9 |
| F27I/A61E/G102P | nd | 0 of 3 | 0 of 9 |
| G26E/S52Y/A61I | 22 µM | 1 of 3 | 4 of 9 |
| A61Y/V64R | nd | 0 of 3 | 0 of 9 |
| A61L/G104R | 120 µM | 1 of 3 | 1 of 9 |
| A33Q/A61P/V99E | 8.0 µM | 1 of 3 | 0 of 9 |
| A61T/Y108P | 13 nM | 1 of 3 | 0 of 9 |
| G59W/A61W/F106R | 210 µM | 2 of 3 | 5 of 9 |
| A61L/G102S/G104I | nd | 0 of 3 | 2 of 9 |
| Y32Q/A33K/A61D | nd | 0 of 3 | 0 of 9 |
| A61M/D62C/G103H | nd | 0 of 3 | 0 of 9 |
| I51N/S52M/A61T | 120 µM | 3 of 3 | 3 of 9 |
| A61M | 51 nM | 3 of 3 | 0 of 9 |
| F29Y/G59V/A61Q | 12 µM | 1 of 3 | 0 of 9 |
| A61C/G104M/D107P | 68 nM | 3 of 3 | 3 of 9 |
| A61I/K65F | 2.8 µM | 2 of 3 | 1 of 9 |
| A33S/S57P/A61E | 710 µM | 2 of 3 | 5 of 9 |
| G50D/A61P/V64G | 27 µM | 2 of 3 | 4 of 9 |
| S52K/S57T/A61V | 260 nM | 1 of 3 | 2 of 9 |
| G26N/A61H/D107Q | nd | 0 of 3 | 1 of 9 |
| G26M/S55Y/A61D | 2.1 µM | 1 of 3 | 2 of 9 |
| Y32S/A61C/S63E | 840 nM | 3 of 3 | 4 of 9 |
| A61T/K65R | 680 nM | 3 of 3 | 0 of 9 |
| I51T/A61W/D107A | nd | 0 of 3 | 0 of 9 |
| F29Y/G50F/A61V | nd | 0 of 3 | 2 of 9 |
| M34A/S57R/A61T | nd | 0 of 3 | 0 of 9 |
| Y32G/A61D/D107A | nd | 0 of 3 | 2 of 9 |
| A61F | nd | 0 of 3 | 3 of 9 |
| G26C/D30R/A61P | nd | 0 of 3 | 0 of 9 |
| D30T/S52A/A61S | 10 nM | 3 of 3 | 5 of 9 |
| F27E/A61L/G104N | 4.4 µM | 1 of 3 | 0 of 9 |
| I51R/A61M/G103R | 69 µM | 2 of 3 | 2 of 9 |
| D31Y/A61D/Y105M | 9.0 µM | 3 of 3 | 2 of 9 |
| G26Q/F29K/A61I | nd | 0 of 3 | 0 of 9 |
| Y32H/A61E/G103C | 30 nM | 3 of 3 | 1 of 9 |
| M34V/A61S/D107F | nd | 0 of 3 | 0 of 9 |
| H35G/I58E/A61Y | nd | 0 of 3 | 0 of 9 |
| N54G/S57T/A61D | 13 µM | 2 of 3 | 3 of 9 |
| W53F/A61D | 140 nM | 3 of 3 | 2 of 9 |
| A33I/G50N/A61L | nd | 0 of 3 | 0 of 9 |
| I58G/A61G/V64R | 630 µM | 2 of 3 | 2 of 9 |
| A61N/V99N | 770 nM | 3 of 3 | 0 of 9 |

A selection of 5 entries from above:

changes,Kd,seen in,control signals
A61G/G100Y/R101H,60 µM,2 of 3,2 of 9
A61C/G102M/Y105S,36 µM,3 of 3,2 of 9
G26E/S52Y/A61I,22 µM,1 of 3,4 of 9
I51T/A61W/D107A,nd,0 of 3,0 of 9
I58G/A61G/V64R,630 µM,2 of 3,2 of 9

Nonspecific signal, from three strains lacking the peptide, appeared in 21% of pairings of library AAYL51, centred on 34 µM (5% of these signals below 1.8 µM); values are not corrected for it. Also given: how often the same scFv was detected with the empty control strains.

Data: MIT Lincoln Laboratory AlphaSeq set, Engelhart et al. 2022, doi:10.1038/s41597-022-01779-4, as distributed in FLAb.